From ChEMBL document CHEMBL1155783, “Novel sterically hindered cannabinoid CB1 receptor ligands” (Bioorg Med Chem, 2008)

Chains of the proteins cited; added tags and fusions are not shown.
UniProt P21554, whole entry: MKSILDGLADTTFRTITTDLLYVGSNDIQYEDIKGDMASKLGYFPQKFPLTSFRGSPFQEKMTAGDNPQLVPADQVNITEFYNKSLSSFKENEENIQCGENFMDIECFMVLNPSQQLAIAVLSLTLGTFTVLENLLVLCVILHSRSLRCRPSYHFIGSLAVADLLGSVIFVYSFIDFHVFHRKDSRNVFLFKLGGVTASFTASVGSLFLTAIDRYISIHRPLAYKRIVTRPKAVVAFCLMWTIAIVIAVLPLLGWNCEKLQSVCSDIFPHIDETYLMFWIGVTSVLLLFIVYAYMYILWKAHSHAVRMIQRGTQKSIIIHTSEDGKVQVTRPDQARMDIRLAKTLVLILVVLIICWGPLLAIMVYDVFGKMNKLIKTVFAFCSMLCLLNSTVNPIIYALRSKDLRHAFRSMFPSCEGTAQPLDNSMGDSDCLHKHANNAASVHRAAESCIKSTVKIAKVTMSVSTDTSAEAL

Biological target: Cannabinoid receptor 1 (Homo sapiens, UniProt P21554)
Test: biochemical
Type: cell-based, HEK293

Cc1ccc(Cn2nc(C(=O)N[C@@H]3C(C)(C)[C@@H]4CC[C@@]3(C)C4)cc2-c2ccc(Cl)c(C)c2)cc1 [SR-144528]
Ki: > 5.6 µM
